Literature values as cited in US20240207277A1, “Methods For Treating Drug and Vaccine Induced Immune Thrombocytopenia by Administering Specific Compounds” (Principia Biopharma Inc., priority 2021, published 2024).

Details: anticoagulation and IVIg or plasma exchange failed; cited from earlier work

B1: Eculizumab: anti-C5 monoclonal antibody (antibody, chains of the INN, looked up)
heavy: QVQLVQSGAEVKKPGASVKVSCKASGYIFSNYWIQWVRQAPGQGLEWMGEILPGSGSTEYTENFKDRVTMTRDTSTSTVYMELSSLRSEDTAVYYCARYFFGSSPNWYFDVWGQGTLVTVSSASTKGPSVFPLAPCSRSTSESTAALGCLVKDYFPEPVTVSWNSGALTSGVHTFPAVLQSSGLYSLSSVVTVPSSNFGTQTYTCNVDHKPSNTKVDKTVERKCCVECPPCPAPPVAGPSVFLFPPKPKDTLMISRTPEVTCVVVDVSQEDPEVQFNWYVDGVEVHNAKTKPREEQFNSTYRVVSVLTVLHQDWLNGKEYKCKVSNKGLPSSIEKTISKAKGQPREPQVYTLPPSQEEMTKNQVSLTCLVKGFYPSDIAVEWESNGQPENNYKTTPPVLDSDGSFFLYSRLTVDKSRWQEGNVFSCSVMHEALHNHYTQKSLSLSLG
light: DIQMTQSPSSLSASVGDRVTITCGASENIYGALNWYQQKPGKAPKLLIYGATNLADGVPSRFSGSGSGTDFTLTISSLQPEDFATYYCQNVLNTPLTFGQGTKVEIKRTVAAPSVFIFPPSDEQLKSGTASVVCLLNNFYPREAKVQWKVDNALQSGNSQESVTEQDSKDSTYSLSSTLTLSKADYEKHKVYACEVTHQGLSSPVTKSFNRGEC
- clinical outcome in 2 patients with VITT: rapidly improved
